Results taken from patent US10106526B2, “Inhibitors of cyclin-dependent kinase 7 (CDK7)” (SYROS PHARMACEUTICALS, INC., priority 2014, dated 2018).

The chains behind the UniProt entries cited, without tags or fusion partners.
UniProt P50613, whole entry: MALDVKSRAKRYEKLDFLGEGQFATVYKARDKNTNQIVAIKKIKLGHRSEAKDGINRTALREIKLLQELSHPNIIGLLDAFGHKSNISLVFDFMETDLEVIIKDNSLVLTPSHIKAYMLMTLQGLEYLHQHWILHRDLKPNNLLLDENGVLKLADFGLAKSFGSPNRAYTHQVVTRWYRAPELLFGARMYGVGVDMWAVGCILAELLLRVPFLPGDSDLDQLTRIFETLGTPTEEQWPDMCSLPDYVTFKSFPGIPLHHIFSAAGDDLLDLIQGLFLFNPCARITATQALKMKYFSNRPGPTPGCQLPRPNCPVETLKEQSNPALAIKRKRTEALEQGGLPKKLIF
UniProt P51946, whole entry partner: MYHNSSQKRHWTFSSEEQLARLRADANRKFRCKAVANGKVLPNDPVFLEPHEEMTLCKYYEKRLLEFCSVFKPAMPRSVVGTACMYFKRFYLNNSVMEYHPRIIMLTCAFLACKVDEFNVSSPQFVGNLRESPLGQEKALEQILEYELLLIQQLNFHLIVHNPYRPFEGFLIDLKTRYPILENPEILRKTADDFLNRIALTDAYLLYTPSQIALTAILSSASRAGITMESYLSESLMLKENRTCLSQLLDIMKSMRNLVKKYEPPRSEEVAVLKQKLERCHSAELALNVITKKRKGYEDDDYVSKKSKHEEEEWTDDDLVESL
UniProt P51948, whole entry partner: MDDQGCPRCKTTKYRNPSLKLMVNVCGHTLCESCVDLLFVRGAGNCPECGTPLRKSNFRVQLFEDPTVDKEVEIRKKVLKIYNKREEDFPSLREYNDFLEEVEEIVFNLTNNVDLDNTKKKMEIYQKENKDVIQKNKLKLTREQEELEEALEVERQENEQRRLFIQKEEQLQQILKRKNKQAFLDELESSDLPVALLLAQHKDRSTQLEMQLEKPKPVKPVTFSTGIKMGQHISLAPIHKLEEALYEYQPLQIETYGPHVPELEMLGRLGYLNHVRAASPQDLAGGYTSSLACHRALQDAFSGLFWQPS

Legend:
A673 cells = assay: Inhibition of proliferation of A673 cells (CyQUANT, 72 hour); settings: read-out: A673 IC50, 72 hour proliferation
Experimental: A673 cells are a cell line derived from human muscle Ewing's sarcoma. Representative compounds of the invention were tested at different concentrations (from 4 μM to 126.4 pM; 0.5 log serial dilutions) for their ability to inhibit the proliferation of A673 cells. Known CDK inhibitors flavopiridol and triptolide were used as positive controls. Cells were grown in Dulbecco's Modified Eagle's Medium, +10% FBS+1 mM Sodium Pyruvate. The cells were cultured at 37° C. in a humidified chamber in the presence of 5% CO2. Proliferation assays were conducted over a 72 hour time period. CyQUANT® (Life Technologies, Chicago, Ill. USA) was used to assess the anti-proliferative effects of the compounds following manufacturer's directions and utilizing the reagents supplied with the CyQUANT® kit. In this table, “A” represents an IC50 of less than 500 nM; “B” an IC50 of between 500 nM and 5 μM; and “C” an IC50 of greater than 5 μM.

CDK7 = CDK7 (Homo sapiens, UniProt P50613); assay: CDK7 kinase activity, Adapta kinase assay (Life Technologies); settings: read-out: CDK7 Inhibition (IC50); Adapta kinase assay at Life Technologies; 10 μM down to 0.514 nM, 3-fold serial dilutions
Jurkat cells = assay: Inhibition of proliferation of Jurkat cells (CellTiter-Glo, 72 hour); settings: read-out: Jurkat IC50, 10 μM to 316 pM
[1] = molecular target: CDK7/Cyclin H/MAT1 trimeric complex (Homo sapiens, UniProt P50613); assay: CDK7 kinase assay, Caliper/LabChip EZ Reader (Biortus Biosciences); settings: read-out: CDK7 Inhibition (IC50), CDK7/Cyclin H/MAT1 10 nM, ATP 2 mM, FAM-CDK7tide 2 μM, 30 min incubation

Compound	IC50 (A673 cells) [nM]	IC50 (CDK7) [nM]	IC50 (Jurkat cells) [nM]	IC50 [1] [nM]
C=CC(=O)N1CCC(CN(C)[C@H]2CCC[C@@H](Nc3ncc(Cl)c(-c4cnn5ccccc45)n3)C2)CC1	< 500	100 to 1000	< 500	
C=CC(=O)N1CCC(CN(C(C)=O)[C@H]2CCC[C@@H](Nc3ncc(Cl)c(-c4c[nH]c5ccccc45)n3)C2)CC1		< 100	500 to 5000	< 100
C=CC(=O)N1CCC(CN(C(=O)OC)[C@H]2CCC[C@@H](Nc3ncc(Cl)c(-c4c[nH]c5ccccc45)n3)C2)CC1		100 to 1000	500 to 5000	
C=CC(=O)N1CCCC(C(=O)N[C@H]2CC[C@@H](Nc3ncc(Cl)c(-c4c[nH]c5ccccc45)n3)CC2)C1 (stereo partly shown)		100 to 1000	< 500	
O=C(/C=C/CN1CCOCC1)N1CCC(C(=O)N2CCC(Nc3ncc(Cl)c(-c4c[nH]c5ccccc45)n3)CC2)CC1		< 100	500 to 5000	< 100
C=CC(=O)N1CCC(C(=O)N[C@H]2CC[C@@H](Nc3ncc(Cl)c(-c4c[nH]c5ccccc45)n3)CC2)CC1	< 500	100 to 1000	< 500	
C=CC(=O)N1CCC(N(C)[C@H]2CCC[C@@H](Nc3ncc(Cl)c(-c4c[nH]c5ccccc45)n3)C2)CC1	< 500	< 100	< 500	< 100
C=CC(=O)N1CCN([C@H]2CCC[C@@H](Nc3ncc(Cl)c(-c4cnn5ccccc45)n3)C2)CC1	< 500	< 100	> 5000	
Cc1cnc(N[C@@H]2CCC[C@H](NC(=O)C3CCN(C(=O)/C=C/CN(C)C)CC3)C2)nc1-c1c[nH]c2ccccc12	< 500	100 to 1000	500 to 5000	
CN(C)C/C=C/C(=O)N1CCCC(C(=O)N[C@H]2CC[C@H](Nc3ncc(Cl)c(-c4c[nH]c5ccccc45)n3)CC2)C1 (stereo partly shown)		< 100	< 500	
CN(C)C/C=C/C(=O)N1CCC(CN(C)[C@H]2CCC[C@@H](Nc3ncc(Cl)c(-c4c[nH]c5ccccc45)n3)C2)CC1	< 500	< 100	< 500	
C=CC(=O)NC1CCN(C2CCC[C@@H](Nc3ncc(Cl)c(-c4c[nH]c5ccccc45)n3)C2)CC1 (stereo partly shown)	< 500	< 100	500 to 5000	< 100
C=CC(=O)Nc1ccc(C(=O)N[C@H]2CCC[C@@H](Nc3ncc(Cl)c(-c4c[nH]c5ccccc45)n3)C2)nc1	< 500	< 100	< 500	< 100
C=CC(=O)N1CCC(CN(C(=O)C=C)[C@H]2CC[C@H](Nc3ncc(Cl)c(-c4c[nH]c5ccccc45)n3)CC2)CC1	< 500	> 1000	< 500	
C=CC(=O)N1CCN(CC2(F)CCC(Nc3ncc(Cl)c(-c4c[nH]c5ccccc45)n3)CC2)CC1 (stereo not shown)		< 100	500 to 5000	< 100
CN(C)C/C=C/C(=O)N1CCC(C(=O)N[C@H]2CCC[C@@H](Nc3ncc(Cl)c(-c4cnn5ccccc45)n3)C2)CC1	< 500	< 100	500 to 5000	< 100
CN(C)C/C=C/C(=O)N1CCCC(C(=O)N[C@H]2CC[C@@H](Nc3ncc(Cl)c(-c4c[nH]c5ccccc45)n3)CC2)C1 (stereo partly shown)	< 500	100 to 1000	500 to 5000	
C=CC(=O)N1CCC(CN([C@H]2CCC[C@@H](Nc3ncc(Cl)c(-c4c[nH]c5ccccc45)n3)C2)S(C)(=O)=O)CC1		100 to 1000	500 to 5000	
C=CC(=O)N1CCN([C@H]2CCC[C@@H](Nc3ncc(Cl)c(Nc4ccccc4S(=O)(=O)C(C)C)n3)C2)CC1	< 500	< 100	< 500	< 100

Compound	IC50 (A673 cells) [nM]	IC50 (CDK7) [nM]	IC50 (Jurkat cells) [nM]	IC50 [1] [nM]
CN(C)C/C=C/C(=O)NC1CCN(C2CCC[C@@H](Nc3ncc(Cl)c(-c4c[nH]c5ccccc45)n3)C2)CC1 (stereo partly shown)	< 500	< 100	< 500	< 100
CN(C)C/C=C/C(=O)NC1CCN([C@@H]2CCC[C@@H](Nc3ncc(Cl)c(-c4c[nH]c5ccccc45)n3)C2)CC1	< 500	< 100	500 to 5000	
C=CCC(=O)N1CCC(CNC2CCCC(Nc3ncc(Cl)c(-c4c[nH]c5ccccc45)n3)C2)CC1 (stereo not shown)		< 100	< 500	
CN(C)C/C=C/C(=O)NCc1nc(C(=O)N[C@H]2CCC[C@@H](Nc3ncc(Cl)c(-c4c[nH]c5ccccc45)n3)C2)cs1	< 500	< 100	< 500	< 100
C=CC(=O)Nc1ccc2c(c1)CN([C@@H]1CCCC(Nc3ncc(Cl)c(-c4c[nH]c5ccccc45)n3)C1)C2 (stereo partly shown)	< 500	< 100	500 to 5000	
C=CC(=O)N1CCC(C(=O)N2CCC(Nc3ncc(Cl)c(-c4c[nH]c5ccccc45)n3)CC2)CC1		< 100	< 500	< 100
C=CC(=O)N1CCC(C(=O)N[C@H]2CCC[C@@H](Nc3ncc(Cl)c(-c4cnn5ccccc45)n3)C2)CC1	< 500	< 100	500 to 5000	< 100
C=CC(=O)NCc1nc(C(=O)N[C@H]2CCC[C@@H](Nc3ncc(Cl)c(-c4c[nH]c5ccccc45)n3)C2)cs1	< 500	< 100	< 500	< 100
C=CC(=O)N1CCC(CN(C)[C@H]2CCC[C@@H](Nc3ncc(C4CC4)c(-c4c[nH]c5ccccc45)n3)C2)CC1		100 to 1000	< 500	
O=C(/C=C/CN1CCOCC1)N1CCN([C@H]2CCC[C@@H](Nc3ncc(Cl)c(-c4c[nH]c5ccccc45)n3)C2)CC1	< 500	< 100	< 500	< 100
CN(C)C/C=C/C(=O)N1CC(C)(C(=O)N[C@H]2CCC[C@@H](Nc3ncc(Cl)c(-c4c[nH]c5ccccc45)n3)C2)C1	< 500	< 100	< 500	< 100
C=CC(=O)N1CCC(C(=O)N[C@H]2CCC[C@@H](Nc3ncc(C4CC4)c(-c4c[nH]c5ccccc45)n3)C2)CC1	500 to 5000	100 to 1000	< 500	
CN(C)C/C=C/C(=O)N1CCC(CNC2CCCC(Nc3ncc(Cl)c(-c4c[nH]c5ccccc45)n3)C2)CC1 (stereo not shown)		< 100	> 5000	
C=CC(=O)N1CC(C)(C(=O)N[C@H]2CCC[C@@H](Nc3ncc(Cl)c(-c4c[nH]c5ccccc45)n3)C2)C1	< 500	< 100	< 500	< 100
CN(C)C/C=C/C(=O)N1CCC(C(=O)N[C@H]2CCC[C@@H](Nc3ncc(C4CC4)c(-c4c[nH]c5ccccc45)n3)C2)CC1	< 500	100 to 1000	500 to 5000	
O=C(N[C@H]1CCC[C@@H](Nc2ncc(Cl)c(-c3cnn4ccccc34)n2)C1)C1CCN(C(=O)/C=C/CN2CCOCC2)CC1		< 100	500 to 5000	< 100
O=C(/C=C/CN1CCOCC1)N1CCC(C(=O)N2CC[C@@H](Nc3ncc(Cl)c(-c4c[nH]c5ccccc45)n3)C2)CC1		100 to 1000	500 to 5000	< 100
CN(C)C/C=C/C(=O)N1CCC(C(=O)N2CCC(Nc3ncc(Cl)c(-c4c[nH]c5ccccc45)n3)CC2)CC1		< 100	500 to 5000	
C=CC(=O)N1CCC(CN[C@H]2CCC[C@@H](Nc3ncc(Cl)c(-c4cnn5ccccc45)n3)C2)CC1	< 500	100 to 1000		< 100
